By UniProt entry, the sequences of proteins in these tests, tags left out.
UniProt P78527, whole entry: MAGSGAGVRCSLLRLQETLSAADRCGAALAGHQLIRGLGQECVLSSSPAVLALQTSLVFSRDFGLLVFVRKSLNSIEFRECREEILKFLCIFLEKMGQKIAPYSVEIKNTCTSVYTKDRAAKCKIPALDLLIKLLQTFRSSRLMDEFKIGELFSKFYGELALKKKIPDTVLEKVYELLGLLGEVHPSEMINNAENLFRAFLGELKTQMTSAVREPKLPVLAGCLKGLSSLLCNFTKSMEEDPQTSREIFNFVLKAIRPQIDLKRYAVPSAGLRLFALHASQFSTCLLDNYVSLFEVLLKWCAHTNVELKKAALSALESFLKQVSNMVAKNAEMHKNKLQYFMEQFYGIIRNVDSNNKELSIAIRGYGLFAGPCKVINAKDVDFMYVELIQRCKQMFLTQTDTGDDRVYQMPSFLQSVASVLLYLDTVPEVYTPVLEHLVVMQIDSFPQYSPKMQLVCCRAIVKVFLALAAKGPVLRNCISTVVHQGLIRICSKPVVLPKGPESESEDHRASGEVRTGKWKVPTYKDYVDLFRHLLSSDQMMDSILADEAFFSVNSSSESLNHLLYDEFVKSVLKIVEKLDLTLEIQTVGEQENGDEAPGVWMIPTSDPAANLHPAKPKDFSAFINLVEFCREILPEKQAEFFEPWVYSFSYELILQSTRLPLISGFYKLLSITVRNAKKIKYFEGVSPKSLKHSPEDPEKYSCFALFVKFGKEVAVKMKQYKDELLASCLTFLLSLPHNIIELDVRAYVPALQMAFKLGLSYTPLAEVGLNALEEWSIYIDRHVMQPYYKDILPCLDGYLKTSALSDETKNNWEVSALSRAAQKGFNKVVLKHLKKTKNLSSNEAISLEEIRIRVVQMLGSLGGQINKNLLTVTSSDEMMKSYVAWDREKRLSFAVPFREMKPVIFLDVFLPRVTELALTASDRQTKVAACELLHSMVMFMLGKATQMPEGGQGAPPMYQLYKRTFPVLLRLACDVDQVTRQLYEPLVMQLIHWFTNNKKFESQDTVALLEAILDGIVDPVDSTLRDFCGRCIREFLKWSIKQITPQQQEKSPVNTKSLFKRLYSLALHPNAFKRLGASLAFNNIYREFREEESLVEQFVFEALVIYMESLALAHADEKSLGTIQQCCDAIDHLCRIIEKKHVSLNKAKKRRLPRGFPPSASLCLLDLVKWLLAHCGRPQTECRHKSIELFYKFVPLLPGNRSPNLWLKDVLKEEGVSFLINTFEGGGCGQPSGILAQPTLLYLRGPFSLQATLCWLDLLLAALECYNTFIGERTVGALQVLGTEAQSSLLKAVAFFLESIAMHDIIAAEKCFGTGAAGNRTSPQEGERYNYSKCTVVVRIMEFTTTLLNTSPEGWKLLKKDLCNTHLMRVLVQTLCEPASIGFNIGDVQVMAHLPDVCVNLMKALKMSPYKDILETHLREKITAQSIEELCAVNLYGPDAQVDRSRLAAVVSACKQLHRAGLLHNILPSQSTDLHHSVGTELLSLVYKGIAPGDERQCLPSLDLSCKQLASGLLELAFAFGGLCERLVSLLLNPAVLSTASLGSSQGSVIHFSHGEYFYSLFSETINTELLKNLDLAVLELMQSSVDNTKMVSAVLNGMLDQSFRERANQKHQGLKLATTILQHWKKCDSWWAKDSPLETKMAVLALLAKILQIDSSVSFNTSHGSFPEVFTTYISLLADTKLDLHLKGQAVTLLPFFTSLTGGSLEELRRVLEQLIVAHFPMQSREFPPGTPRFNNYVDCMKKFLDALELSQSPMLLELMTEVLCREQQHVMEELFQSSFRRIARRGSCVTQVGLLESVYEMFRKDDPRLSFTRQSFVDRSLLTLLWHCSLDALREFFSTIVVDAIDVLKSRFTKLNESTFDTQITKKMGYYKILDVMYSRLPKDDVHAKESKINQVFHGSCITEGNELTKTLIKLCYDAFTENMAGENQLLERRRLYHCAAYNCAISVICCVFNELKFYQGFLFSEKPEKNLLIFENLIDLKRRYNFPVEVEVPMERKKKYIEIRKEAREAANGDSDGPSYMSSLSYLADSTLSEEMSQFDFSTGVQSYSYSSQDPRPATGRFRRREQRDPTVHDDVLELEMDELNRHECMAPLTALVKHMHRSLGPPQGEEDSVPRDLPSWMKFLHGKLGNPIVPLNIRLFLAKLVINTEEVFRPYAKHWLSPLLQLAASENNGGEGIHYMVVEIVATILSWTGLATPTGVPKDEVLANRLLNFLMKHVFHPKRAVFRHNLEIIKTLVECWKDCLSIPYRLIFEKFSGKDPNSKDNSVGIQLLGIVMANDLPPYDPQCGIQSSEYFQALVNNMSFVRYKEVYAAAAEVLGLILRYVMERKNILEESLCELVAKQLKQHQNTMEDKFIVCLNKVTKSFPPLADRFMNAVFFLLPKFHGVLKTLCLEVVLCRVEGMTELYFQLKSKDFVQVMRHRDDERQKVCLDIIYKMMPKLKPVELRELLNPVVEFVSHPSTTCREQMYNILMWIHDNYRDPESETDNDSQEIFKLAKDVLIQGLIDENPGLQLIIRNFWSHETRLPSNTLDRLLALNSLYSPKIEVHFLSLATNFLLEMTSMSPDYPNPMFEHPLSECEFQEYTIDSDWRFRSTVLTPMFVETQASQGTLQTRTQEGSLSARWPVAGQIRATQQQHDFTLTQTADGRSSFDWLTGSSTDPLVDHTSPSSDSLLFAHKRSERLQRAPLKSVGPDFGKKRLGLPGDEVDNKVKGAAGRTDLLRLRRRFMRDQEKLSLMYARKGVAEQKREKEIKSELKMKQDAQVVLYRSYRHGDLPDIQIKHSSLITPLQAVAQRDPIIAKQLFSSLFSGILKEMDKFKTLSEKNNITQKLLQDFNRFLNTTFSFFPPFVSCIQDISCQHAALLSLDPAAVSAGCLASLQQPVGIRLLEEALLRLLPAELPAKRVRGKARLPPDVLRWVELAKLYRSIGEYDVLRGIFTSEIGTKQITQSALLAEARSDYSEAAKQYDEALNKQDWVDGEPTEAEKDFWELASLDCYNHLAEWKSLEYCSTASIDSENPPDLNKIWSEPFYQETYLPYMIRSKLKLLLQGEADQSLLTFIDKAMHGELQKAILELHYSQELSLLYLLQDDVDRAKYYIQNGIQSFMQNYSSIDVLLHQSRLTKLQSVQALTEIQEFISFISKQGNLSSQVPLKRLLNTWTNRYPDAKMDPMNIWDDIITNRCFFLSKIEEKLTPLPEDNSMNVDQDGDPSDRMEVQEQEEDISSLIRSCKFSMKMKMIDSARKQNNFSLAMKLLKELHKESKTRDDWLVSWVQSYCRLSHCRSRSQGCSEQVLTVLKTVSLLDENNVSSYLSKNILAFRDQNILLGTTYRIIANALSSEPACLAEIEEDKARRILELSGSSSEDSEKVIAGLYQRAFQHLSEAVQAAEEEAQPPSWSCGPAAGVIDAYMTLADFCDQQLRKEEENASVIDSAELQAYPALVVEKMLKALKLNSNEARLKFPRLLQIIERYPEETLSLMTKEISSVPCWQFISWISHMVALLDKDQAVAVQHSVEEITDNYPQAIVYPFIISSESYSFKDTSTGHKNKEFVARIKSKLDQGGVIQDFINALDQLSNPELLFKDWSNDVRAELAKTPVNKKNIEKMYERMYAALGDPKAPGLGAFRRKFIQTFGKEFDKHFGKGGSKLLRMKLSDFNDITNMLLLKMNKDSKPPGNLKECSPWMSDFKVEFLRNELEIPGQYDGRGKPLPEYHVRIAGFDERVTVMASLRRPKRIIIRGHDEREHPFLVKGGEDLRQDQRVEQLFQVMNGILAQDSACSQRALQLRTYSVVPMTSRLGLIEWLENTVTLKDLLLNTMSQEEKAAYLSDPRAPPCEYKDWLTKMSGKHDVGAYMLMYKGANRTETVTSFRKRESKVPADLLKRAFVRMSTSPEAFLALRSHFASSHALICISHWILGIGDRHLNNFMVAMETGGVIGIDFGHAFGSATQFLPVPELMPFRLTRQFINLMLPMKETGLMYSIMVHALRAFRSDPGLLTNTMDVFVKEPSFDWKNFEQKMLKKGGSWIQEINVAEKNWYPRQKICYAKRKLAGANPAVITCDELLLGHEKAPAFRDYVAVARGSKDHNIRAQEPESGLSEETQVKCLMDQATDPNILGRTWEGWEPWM

According to patent US11230549B2, “Quinolino-pyrrolidin-2-one derivative and application thereof” (MEDSHINE DISCOVERY INC., priority 2018, dated 2022):

Molecular target: T1, Human-derived DNA-PK kinase (Homo sapiens, UniProt P78527)
T1 construct: Eurofins (contract laboratory that ran the test)
Experiment: DNA-PK enzyme activity test (HTRF, phosphorylation of GST-cMyc-p53)
Format: biochemical
Description: The compounds of the present disclosure used for experiments are all prepared in-house, and their chemical names and structural formulas are shown in the preparation examples of each compound. The experimental tests were carried out by a UK company Eurofins, and the experimental results were provided by the company. The following experimental processes were also provided by the company.
Human-derived DNA-PK kinase was incubated in a buffer solution containing 50 nM of GST-cMyc-p53 and Mg/ATP. The concentration of Mg/ATP was determined according to different needs. The reaction was initiated by adding a Mg/ATP complex. After incubating for about 30 minutes at room temperature, a stop solution containing EDTA was added to stop the reaction. Finally, for phosphorylated p53, a detection buffer containing a d2-labeled anti-GST monoclonal antibody and an europium-labeled phosphorylated Ser15 antibody was added. Then time-resolved fluorescence mode was used to read a detection disk, and a homogeneous time-resolved fluorescence (HTRF) signal was obtained by calculating formula HTRF=10000×(Em665 nm/Em620 nm).

Q: How did the IC50 turn out when `CN(C)CCCOc1ccc(-c2ccc3ncc4c(c3c2)n(C2CCOCC2)c(=O)n4C)cn1` [AZD0156, reference compound] was run?
A: 58 nM
